# Yeast mating assay B: variants of the scFv Ab-14

Reference: Li et al. 2023, doi:10.1038/s41467-023-39022-2. File: FLAb, binding data.

The target is the same throughout: PDVDLGDISGINAS, from the HR2 region of SARS-CoV-2 spike.

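The variants were designed computationally from a first round of random CDR variants and then made and measured. Group labels follow the data file (Ctrl: baseline library sampled from a position-specific scoring matrix, with some repeated check sequences; GPLM: also part of the Gaussian process libraries; HC: hill climbing; a sequence that several methods proposed may carry one label only). AlphaSeq pools MATa yeast showing the antibodies with MATalpha yeast showing the peptide. Binding brings cells together so that they mate, and sequencing counts the barcode pairs among the diploids. Scores were corrected for input abundance and mapped to Kd with protein pairs of known affinity run in the same pool. Each pool was mated in six replicate cultures.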

Ab-14 is the parent antibody, in scFv form: VH, then the linker GGGGSGGGGSGGGGS, then VL. The heavy chain is unchanged in all variants.
VH: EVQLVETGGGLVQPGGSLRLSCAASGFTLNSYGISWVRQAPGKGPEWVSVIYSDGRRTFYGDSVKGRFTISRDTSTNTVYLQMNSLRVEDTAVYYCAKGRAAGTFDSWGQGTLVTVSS
VL: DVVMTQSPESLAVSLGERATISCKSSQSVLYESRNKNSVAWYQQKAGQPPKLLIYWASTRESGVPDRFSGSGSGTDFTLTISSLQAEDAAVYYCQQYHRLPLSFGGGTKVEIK

Changes read parent residue, position, new residue, counted from the first residue of the VL shown. Values are log10 of the apparent Kd in nM; lower means stronger binding. A mean of the replicates is given; it leaves out those without a signal. "nd" marks a missing value. The strain was present, yet no cells mated with the target were sequenced in that replicate, which points to weak or no binding. A sequence that the file lists under several names has all its replicates listed entry by entry, parted by semicolons. The authors' rule: three or more of the six replicates give a measured affinity, fewer mean a poor binder. Three control strains display no target. For all light chain designs, 4% of the pairings with them gave a signal, with a median of 2.64 and one signal in twenty below 1.59, so weak values seen in few replicates may be background. Also given: how often the same scFv was detected with the empty control strains, with their mean in brackets. Values of this round are not directly comparable with the first-round values of the same sequences.

changes,group,log10 Kd (nM) by replicate,mean log10 Kd (nM),empty controls
L30M R34L,Ctrl,1.28 / 0.69 / 1.37 / 1.26 / 0.74 / 1.19,1.09,2/18 (2.89)
Q27H Y31N,Ctrl,1.16 / 1.56 / 1.49 / 2.95 / 1.79 / 1.87,1.80,2/18 (2.76)
K24H W56D,Ctrl+GPLM_HC,0.11 / -0.19 / -0.04 / -0.07 / -0.14 / 0.21; 0.13 / 0.04 / 0.20 / -0.18 / 0.15 / -0.18,0.00,2/36 (3.01)
S25M S38E S62Q,Ctrl,0.93 / 0.90 / 1.27 / 1.15 / nd / 1.84,1.22,0/18
R34M K36L T59E,Ctrl,1.57 / 1.14 / 1.71 / 0.93 / 2.46 / 1.59,1.57,0/18
S25I Q27M E32D R34N N35T,Ctrl,nd / nd / nd / nd / nd / nd,nd,0/18
R34T W56G H98I,Ctrl,0.45 / 0.17 / -0.16 / 0.34 / 0.11 / 0.45,0.23,1/18 (2.19)
Y31T W56E T59H E61A S62I H98V,Ctrl,0.09 / 0.07 / 0.01 / -0.18 / 0.00 / 0.07,0.01,2/18 (2.70)
V29N L30I E32D Q95A L100I,Ctrl,nd / nd / nd / nd / nd / nd,nd,0/18
E32D W56E,Ctrl,1.41 / 1.13 / 2.65 / 1.21 / 1.55 / 1.12,1.51,0/18
S28A W56S R60Q S62A,Ctrl,1.19 / 1.56 / 0.96 / 0.98 / 0.67 / 0.99,1.06,1/18 (2.54)
S33M S58N E61C Y97Q,Ctrl,nd / nd / nd / 1.63 / nd / nd,1.63,1/18 (1.30)
S28P W56A S103R,Ctrl,nd / nd / nd / nd / nd / nd,nd,0/18
V29D R34A,Ctrl,1.80 / 1.10 / 1.35 / 1.00 / 0.96 / 1.44,1.28,4/18 (2.69)
R34T S58G,Ctrl,nd / nd / nd / nd / nd / nd,nd,0/18
S25Q S33E R34K,Ctrl,nd / 1.22 / nd / 2.25 / 2.37 / 3.22,2.26,1/18 (3.28)
S25M K36P W56Q,Ctrl,0.27 / 0.06 / -0.11 / 0.11 / -0.05 / 0.31,0.10,1/18 (3.45)
S26E H98A,Ctrl,1.46 / 0.28 / nd / nd / nd / 0.82,0.86,0/18
S33G K36V S38P R99I,Ctrl,nd / nd / nd / nd / nd / nd,nd,0/18
E32T N37Q W56N Q96A L102C,Ctrl,nd / nd / nd / nd / nd / nd,nd,0/18
S58K H98M,Ctrl,nd / nd / nd / nd / 1.17 / 1.90,1.54,0/18
S62H L100M,Ctrl,nd / nd / nd / nd / nd / nd,nd,0/18
S38N W56H,Ctrl,0.20 / 0.82 / 0.25 / 0.23 / 0.18 / 0.49,0.36,2/18 (3.04)
R34L V39I Q95P,Ctrl,nd / nd / nd / nd / nd / nd,nd,0/18
Y31E W56G S62I L102P,Ctrl,1.73 / 2.39 / 2.61 / 3.65 / 3.03 / 2.53,2.66,0/18
Q27E Y31D R34N S38H W56S Q96F H98C,Ctrl,2.46 / 1.84 / nd / 2.92 / 2.52 / 2.05,2.36,1/18 (2.37)
W56N E61A,Ctrl,1.05 / 1.14 / 0.91 / 1.20 / 1.12 / 1.20,1.10,4/18 (3.56)
Q27G V29L R34T K36Q W56D,Ctrl,0.27 / 0.12 / 0.06 / -0.10 / 0.04 / 0.24,0.10,2/18 (2.38)
Q27W T59S E61C S103Y,Ctrl,nd / nd / nd / nd / nd / nd,nd,1/18 (0.57)
S26E H98Y,Ctrl,nd / 1.02 / nd / nd / 0.96 / 1.05,1.01,0/18
S25M N37Y E61I,Ctrl,1.51 / 1.31 / 1.58 / 1.88 / 1.27 / 1.82,1.56,1/18 (2.82)
S38A P101Q,Ctrl,nd / nd / nd / nd / nd / nd,nd,0/18
Y31T S58R,Ctrl,nd / nd / nd / nd / 4.08 / nd,4.08,0/18
L30G N35Y,Ctrl,2.20 / 2.29 / 1.15 / 2.02 / 1.89 / 1.79,1.89,1/18 (2.43)
V29D R34D W56A H98L,Ctrl,0.74 / 0.93 / 0.50 / 0.45 / 0.29 / 0.83,0.62,1/18 (1.94)
K24N S25R L30T,Ctrl,nd / nd / nd / nd / nd / 2.72,2.72,0/18

The 2 strongest on average among those seen in every replicate, once more:

changes,group,log10 Kd (nM) by replicate,mean log10 Kd (nM),empty controls
K24H W56D,Ctrl+GPLM_HC,0.11 / -0.19 / -0.04 / -0.07 / -0.14 / 0.21; 0.13 / 0.04 / 0.20 / -0.18 / 0.15 / -0.18,0.00,2/36 (3.01)
Y31T W56E T59H E61A S62I H98V,Ctrl,0.09 / 0.07 / 0.01 / -0.18 / 0.00 / 0.07,0.01,2/18 (2.70)